Measured affinities in a library of Ab-14 light chain variants

Data: MIT Lincoln Laboratory AlphaSeq set, Li et al. 2023, doi:10.1038/s41467-023-39022-2, as distributed in FLAb.

The target is the same throughout: PDVDLGDISGINAS, from the HR2 region of SARS-CoV-2 spike.

Each scFv is VH, three GGGGS repeats, VL, as in the parent Ab-14, and differs from it in the CDRs of the light chain only.
VH: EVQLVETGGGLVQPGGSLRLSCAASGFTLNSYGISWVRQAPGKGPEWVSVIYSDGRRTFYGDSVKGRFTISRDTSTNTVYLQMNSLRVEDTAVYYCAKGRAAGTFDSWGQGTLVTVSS
VL: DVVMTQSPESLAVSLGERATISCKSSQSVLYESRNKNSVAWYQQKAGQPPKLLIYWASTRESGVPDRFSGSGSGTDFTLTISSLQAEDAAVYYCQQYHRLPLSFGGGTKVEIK

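The parent was found by panning a naive human phage display library on the peptide. Designed CDR sequences, proposed from the first random library and measured here. Group labels follow the data file (Ctrl: baseline library sampled from a position-specific scoring matrix, with some repeated check sequences; En: ensemble of fine-tuned language models; GP: Gaussian process model; HC: hill climbing; Gen: genetic algorithm; Gibbs: Gibbs sampling; a sequence that several methods proposed may carry one label only). In AlphaSeq, yeast of one mating type display the scFv and yeast of the other type display the target. After mating in shaken culture at 30 °C for 16 h, diploids were selected and their barcode pairs sequenced. Each replicate has its own calibration line, from reference interactions of the BCL2 family. Mating was done six times.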

Each variant is given by its three light chain CDRs, as the data file delimits them; those of the parent are KSSQSVLYESRNKNSVA, WASTRES, QQYHRLPLS.
Scale: log10 of Kd in nM, estimated from mating counts; low values are strong binders.
Replicates are averaged; those with no signal do not enter the mean.
A pair that was not seen in any replicate is written "nd"; this usually means weak binding, but a binder can also be missed.

"log10 Kd (nM), mean",seen in,CDR-L1,CDR-L2,CDR-L3,group
-0.03,6 of 6,KLSQSVLYESREKNSVA,NASTRES,QQYHRLPLS,GP_Gen
-0.32,6 of 6,KLSQSVPYESRNKNSVA,DASTRES,QQYHRLPLS,GP_Gen
nd,0 of 6,MISQLYNMGQFAINSVA,QASERYQ,QQYDRLPLI,En_Gen
0.49,6 of 6,KLRMSTLYESRNKNSVA,MASTRES,QQYHRLPLS,GP_HC
1.00,6 of 6,KSSQSVLYESTNKNSVA,WASQRES,QQYMRLPLS,Ctrl
0.89,6 of 6,MMSQVTGQGTRHRNNVA,QTETREP,QQYDRLPLV,En_Gen
0.33,6 of 6,KSLQSVLYESRDKNSVA,HASTRLD,QQYHRLPLS,GP_HC
0.79,5 of 6,TLYGLTNSMLKNKDNVA,EMSTREA,QQYDRLPLM,En_Gen
0.85,6 of 6,KLKLSLSFSLRGTRAIA,DGSTRAH,QQYHRLPLT,En_Gibbs
1.34,6 of 6,HMKDELGLGPQTYYSVA,HGSMREP,QDYYRLPLG,En_Gibbs
nd,0 of 6,MLSEVLHMLGVQKNSIA,DLVLRAN,QQYHRLPLS,En_Gen
0.22,6 of 6,KVNGLMGIEQMNSKSVA,HSSTREN,QQYHRLPLS,En_HC
0.25,6 of 6,KVSPSHLYESRNKNSVA,QASTRES,QQYHRLPLS,GP_HC
0.43,6 of 6,KSSCSVDQEDRNSNSVA,NASTREL,QQYHRLPLS,GP_Gibbs
1.71,6 of 6,HVTEQLRPGHETQNPIA,EASHRAA,QQYAHLPLG,En_Gibbs
0.13,6 of 6,SFSQSVLYEQVHKNNVA,QTSTREE,QQYDHLPLS,En_HC
0.34,6 of 6,SMTGDLLDGNREPSNIA,AQDIGTD,QQYHRLPFI,En_Gibbs
0.11,6 of 6,KSSQSHLSESRNKNSVA,AASTRES,QQYHRLPLS,Ctrl
2.23,5 of 6,MLSQMWALGQKAKNSVA,QASMRFN,QQYDRLPLI,En_Gen
0.56,6 of 6,KYSQSYHYESRNKNSVA,GASTRES,QQYHRLPLS,GP_HC
0.00,6 of 6,KLSQSWLYKSRNANSVA,NASQREE,QQYHRLPLS,GP_Gibbs
-0.17,6 of 6,HMSESEHGDNVGVGNMA,NAQESTD,QQYMHLPLS,En_Gibbs
-0.16,6 of 6,KVSGLGLYGQRNKNSVA,EASTRED,QQYHRLPLS,GP_Gibbs
-0.10,6 of 6,KLYQSVLYESRNKNSVA,NASTRSS,QQYHRLPLS,GP_Gen
nd,0 of 6,KSSQSVLYESTNKNSVA,WASIREY,QQVHRLPRS,Ctrl
2.09,2 of 6,KNSQSVLYEDRNKNSVA,WASTRES,QQYHRLPLS,Ctrl
1.18,1 of 6,IVSQLMMWGLHAKNSIA,EAVTRYN,QQYDRLPLF,En_Gen
-0.10,6 of 6,KLQQSHLYESRNKNSVA,EASTRCS,QQYHRLPLS,GP_Gen
3.29,2 of 6,SFSHESLGSKNEEASIA,STETLMS,QDYARLPLA,En_Gibbs
-0.53,6 of 6,KLSQSNLYESRNKNSVA,EASQRES,QQYHRLPLS,GP_Gen
0.75,6 of 6,KLTSHEWHGTADNSAMA,NAQVSHD,QQYSRLPLA,En_Gibbs
1.01,6 of 6,MLLQTTMYGERNRNSVA,HASTRED,QQYHRLPLI,En_HC
1.18,6 of 6,KLNDGFQQYEQNNSSVA,DAINSEQ,QQYARLPLL,En_Gibbs
1.78,5 of 6,FITYQQDQTGLQRNAIA,QVNLKEQ,QQYGRLPFA,En_Gibbs
nd,0 of 6,KSHQSVLNISRNKNSVA,WASTRES,QQYHRLPLS,Ctrl
2.35,3 of 6,KLSSFHNVETINKSNVA,EMVTREN,QQYDRLPLS,En_HC
-0.36,6 of 6,KLYQSDLYESRNKNSVA,EASTRES,QQYHRLPLS,GP_Gen
0.72,6 of 6,MMSQVTGMESHQRNNVA,QTSTRES,QQYDRLPLI,En_Gen
2.40,3 of 6,TITGFQNMSTQGNWSIA,QAEQKVH,QQYDRLPLA,En_Gibbs
1.52,4 of 6,HISMMVGTKGYNKNSVA,NAETRYD,QQYHRLPLS,En_HC
0.21,6 of 6,KVQQSTLYESRNKNSVA,NASTRES,QQYHRLPLS,GP_HC
0.04,6 of 6,MISDLTMYGSRNKNSVA,DLSQRGS,QQYHRLPLS,En_HC
0.46,6 of 6,KLSQSDLYESRNKNSVA,HASTREQ,QQYHRLPLS,GP_Gen
1.05,6 of 6,KSSLSVLYESHNKNSVA,NASTRMS,QQYHRLPLS,GP_HC
1.20,6 of 6,IVSQVMSWGIHAKNSIA,EAQTRCN,QQYDRLPLF,En_Gen
0.23,6 of 6,KFSQSVLYEMRTKNAVA,NASTRES,QQYHRLPLS,GP_HC
0.00,6 of 6,KSGQGALYESRNKNSVA,GASTRES,QQYHRLPLS,GP_HC
0.42,6 of 6,KLGQMTAIESRNLNSVA,QMTTRES,QQYDRLPLS,En_HC

For reference, 6 entries of the list once more:

CDR-L1,CDR-L2,CDR-L3,group,"log10 Kd (nM), mean",seen in
KLNDGFQQYEQNNSSVA,DAINSEQ,QQYARLPLL,En_Gibbs,1.18,6 of 6
HMKDELGLGPQTYYSVA,HGSMREP,QDYYRLPLG,En_Gibbs,1.34,6 of 6
KSGQGALYESRNKNSVA,GASTRES,QQYHRLPLS,GP_HC,0.00,6 of 6
KSSQSVLYESTNKNSVA,WASIREY,QQVHRLPRS,Ctrl,nd,0 of 6
KSSCSVDQEDRNSNSVA,NASTREL,QQYHRLPLS,GP_Gibbs,0.43,6 of 6
KVQQSTLYESRNKNSVA,NASTRES,QQYHRLPLS,GP_HC,0.21,6 of 6

Of ten entries with the parent sequence, four were seen in most replicates (averages 0.34 to 2.37), three in one and three in none, so single entries are noisy.
Values of this round are not directly comparable with the first-round values of the same sequences.
The authors averaged sequences with at least three values out of six and counted those with two or fewer as poor binders.
Three control strains display no target. For all light chain designs, 4% of the pairings with them gave a signal, with a median of 2.64 and one signal in twenty below 1.59, so weak values seen in few replicates may be background.